The values below come from ChEMBL document CHEMBL1782028, “Evaluation of structurally diverse neuronal nicotinic receptor ligands for selectivity at the alpha6( *) subtype” (Bioorg Med Chem Lett, 2009).

Chains of the proteins cited; added tags and fusions are not shown. Lines headed by an entry give the natural chain unless they say otherwise; changes in a name come on top.
UniProt Q8R493: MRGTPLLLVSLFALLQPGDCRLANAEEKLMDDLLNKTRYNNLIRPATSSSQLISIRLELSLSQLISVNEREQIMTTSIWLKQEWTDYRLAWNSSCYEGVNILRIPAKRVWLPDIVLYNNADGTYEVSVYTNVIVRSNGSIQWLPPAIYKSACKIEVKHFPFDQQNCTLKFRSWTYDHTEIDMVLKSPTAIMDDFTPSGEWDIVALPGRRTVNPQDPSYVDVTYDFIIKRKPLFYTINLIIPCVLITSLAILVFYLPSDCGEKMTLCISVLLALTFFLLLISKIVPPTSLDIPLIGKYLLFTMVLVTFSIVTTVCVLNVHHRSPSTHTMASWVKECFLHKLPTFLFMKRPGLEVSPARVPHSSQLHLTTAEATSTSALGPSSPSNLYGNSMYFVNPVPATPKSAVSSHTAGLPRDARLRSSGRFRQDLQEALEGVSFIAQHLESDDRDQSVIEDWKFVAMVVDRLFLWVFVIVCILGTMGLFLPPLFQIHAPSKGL

In this assay the target is Nicotinic acetylcholine receptor alpha-4/beta-2 (Mus musculus) (UniProt Q9ERK7+Q8R493). The assay can be described thus: Activity at alpha4beta2*nAChR in mouse striatal synaptosomes assessed as alpha-conotoxic MII-resistant DA release relative to control. It counts as subcellular. To be noted: Brain.

In the case of `c1cncc(CC2CC3CCN2CC3)c1` (stereo unspecified), the Imax came to 98%.
